Tested on: H295R adrenocortical carcinoma cells
Experiment: Synergy of MBZ with chemotherapeutic agents (Chou-Talalay CI, Cell Titer Glo)
Format: cell-based
Settings: in combination with MBZ, 72 hour incubation

SMILES: COc1cccc2c1C(=O)c1c(O)c3c(c(O)c1C2=O)C[C@@](O)(C(=O)CO)C[C@@H]3O[C@H]1C[C@H](N)[C@H](O)[C@H](C)O1 [Doxorubicin]
- CI range for the concentration pairings: 0.689-0.697
